# Laboratory results as given in ChEMBL document CHEMBL1126017, “Phenylalkyl isothiocyanate-cysteine conjugates as glutathione S-transferase stimulating agents” (J Med Chem, 1992).
# How the values were obtained:
# [1] = system: glutathione S-transferase (Mus musculus); experiment: Induction of increased cytosolic glutathione S-transferase activity in small bowel mucosa of A/J mice treated with 3 doses of 0.04 mM compound (dissolved in 0.3 mL of cottonseed oil) for 2 days
# [2] = system: glutathione S-transferase (Mus musculus); experiment: Induction of increased cytosolic glutathione S-transferase activity in forestomach of A/J mice treated with 3 doses of 0.04 mM compound (dissolved in 0.3 mL of cottonseed oil) for 2 days; details: Stomach
# [3] = system: glutathione S-transferase (Mus musculus); experiment: Induction of increased cytosolic glutathione S-transferase activity in large bowel mucosa of A/J mice treated with 3 doses of 0.04 mM compound (dissolved in 0.3 mL of cottonseed oil) for 2 days
# [4] = system: glutathione S-transferase (Mus musculus); experiment: Induction of increased cytosolic glutathione S-transferase activity in lung of A/J mice treated with 3 doses of 0.04 mM compound (dissolved in 0.3 mL of cottonseed oil) for 2 days
# [5] = system: glutathione S-transferase (Mus musculus); experiment: Induction of increased cytosolic glutathione S-transferase activity in bladder of A/J mice treated with 3 doses of 0.04 mM compound (dissolved in 0.3 mL of cottonseed oil) for 2 days; details: Urinary bladder
# [6] = system: glutathione S-transferase (Mus musculus); experiment: Induction of increased cytosolic glutathione S-transferase activity in liver of A/J mice treated with 3 doses of 0.04 mM compound (dissolved in 0.3 mL of cottonseed oil) for 2 days
compound,measurement,setting,value
S=C=NCCCc1ccccc1,Activity (uM min-1 (mg of protein)-1),[1],1.37
same,Activity (uM min-1 (mg of protein)-1),[2],0.98
same,Activity (uM min-1 (mg of protein)-1),[3],0.37
same,Activity (uM min-1 (mg of protein)-1),[4],0.42
same,Activity (uM min-1 (mg of protein)-1),[5],5.87
same,Activity (uM min-1 (mg of protein)-1),[6],1.2
